Data reported in patent EP1296703B1, “NON-ANTIBACTERIAL TETRACYCLINE AS ANTI-FUNGAL AGENTS” (Liu, Yu, priority 2000, dated 2001).

Experiment: Blood levels after oral gavage
Assay type: in vivo
Details: adult rats orally gavaged
Excerpt: In the treatment of certain localized conditions, the degree of hydrophilicity of the CMT can be of lesser importance. […].

Question: With “4-hydroxy-4-de(dimethylamino)tetracycline [CMT-6]” as the substance, how does the Blood levels read?
Answer: no detectable blood levels
